Reference: ChEMBL document CHEMBL1123557, “N-substituted 1,2,3,4,4a,5,6,10b-octahydrobenzo[f]quinolines and 3-phenylpiperidines: effects on central dopamine and sigma receptors” (J Med Chem, 1987)

System: Dopamine D2 receptor (Rattus norvegicus)
Experiment: Effective dose required for DOPA accumulation (presynaptic dopaminergic effect) in rat

| SMILES | ED50 |
| --- | --- |
| Oc1ccc2c(c1)C1CCCNC1CC2 (racemic; 18) | 25 µmol/kg |
| CN1CCCC2c3cccc(O)c3CCC21 (racemic) | 0.63 µmol/kg |
| CCCN1CCC[C@H]2c3cccc(O)c3CC[C@@H]21 | 0.014 µmol/kg |
| CCCN1CCC[C@@H]2c3cccc(O)c3CC[C@@H]21 | 0.32 µmol/kg |
| CCN1CCCC2c3cccc(O)c3CCC21 (racemic) | 0.17 µmol/kg |
| CCCN1CCCC2c3ccc(O)cc3CCC21 (racemic; 17) | 0.54 µmol/kg |
| CCCCN1CCC[C@H](c2cccc(O)c2)C1 | 9.2 µmol/kg |
